Earlier results as cited in patent US20210077478A1, “METHOD OF COUNTERING RESPIRATORY DEPRESSION VIA ACTIVATION OF NEURONAL HETEROMERIC NICOTINIC ACETYLCHOLINE RECEPTORS” (THE GOVERNORS OF THE UNIVERSITY OF ALBERTA, priority 2017, published 2021).

By UniProt entry, the sequences of proteins in these tests, tags left out. Residues count along the entry.
UniProt P09483, 31-630: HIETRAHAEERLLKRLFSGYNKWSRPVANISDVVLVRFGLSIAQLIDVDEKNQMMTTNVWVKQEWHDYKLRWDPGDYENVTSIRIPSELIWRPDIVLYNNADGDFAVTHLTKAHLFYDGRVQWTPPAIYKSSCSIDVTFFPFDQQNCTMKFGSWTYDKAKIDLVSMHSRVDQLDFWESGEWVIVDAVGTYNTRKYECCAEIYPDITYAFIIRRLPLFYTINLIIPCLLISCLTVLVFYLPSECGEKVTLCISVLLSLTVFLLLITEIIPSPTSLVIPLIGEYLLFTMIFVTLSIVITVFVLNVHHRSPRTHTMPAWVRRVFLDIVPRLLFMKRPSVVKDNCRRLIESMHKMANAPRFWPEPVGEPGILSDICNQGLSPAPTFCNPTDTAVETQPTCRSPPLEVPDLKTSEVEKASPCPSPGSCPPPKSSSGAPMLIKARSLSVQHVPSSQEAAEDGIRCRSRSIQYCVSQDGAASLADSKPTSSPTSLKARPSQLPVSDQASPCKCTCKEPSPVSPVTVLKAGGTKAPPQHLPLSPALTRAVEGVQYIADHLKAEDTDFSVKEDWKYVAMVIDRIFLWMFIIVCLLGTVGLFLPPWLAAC
UniProt P12392, 21-495: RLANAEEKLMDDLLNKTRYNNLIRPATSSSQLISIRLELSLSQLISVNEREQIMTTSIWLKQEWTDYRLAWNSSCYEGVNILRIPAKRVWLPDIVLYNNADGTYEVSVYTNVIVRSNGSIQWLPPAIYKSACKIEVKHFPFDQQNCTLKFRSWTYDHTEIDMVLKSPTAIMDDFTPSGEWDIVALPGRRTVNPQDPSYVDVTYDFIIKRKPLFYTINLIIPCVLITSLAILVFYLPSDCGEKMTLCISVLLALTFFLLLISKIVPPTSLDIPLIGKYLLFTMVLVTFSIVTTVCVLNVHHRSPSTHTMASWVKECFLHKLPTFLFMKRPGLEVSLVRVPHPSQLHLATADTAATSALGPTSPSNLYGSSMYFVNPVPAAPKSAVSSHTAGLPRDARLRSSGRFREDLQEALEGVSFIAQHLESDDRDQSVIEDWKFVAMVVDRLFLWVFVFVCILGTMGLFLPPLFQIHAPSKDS
UniProt P12390, 25-500: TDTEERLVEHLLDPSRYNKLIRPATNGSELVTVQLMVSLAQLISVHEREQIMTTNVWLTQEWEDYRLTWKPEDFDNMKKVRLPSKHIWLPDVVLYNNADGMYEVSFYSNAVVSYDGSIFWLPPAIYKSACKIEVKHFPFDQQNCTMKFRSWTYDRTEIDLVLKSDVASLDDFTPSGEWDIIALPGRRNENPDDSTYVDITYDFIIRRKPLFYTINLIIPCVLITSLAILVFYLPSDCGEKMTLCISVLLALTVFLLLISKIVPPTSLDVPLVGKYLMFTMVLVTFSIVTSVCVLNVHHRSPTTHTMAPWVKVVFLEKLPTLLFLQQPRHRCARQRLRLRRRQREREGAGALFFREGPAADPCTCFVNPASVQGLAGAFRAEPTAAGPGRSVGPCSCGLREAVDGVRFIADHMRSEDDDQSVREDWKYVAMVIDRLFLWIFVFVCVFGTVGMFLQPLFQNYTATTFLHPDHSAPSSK

Legend:
[1] = biological target: α4β4 nAChRs (Rattus norvegicus, UniProt P09483+P12392); details: Harvey et al., 1996; read-out: IC50, block of activation; cited from earlier work
[2] = biological target: α4β2 nAChRs (Rattus norvegicus, UniProt P09483+P12390); details: Harvey et al., 1996; read-out: IC50, block of activation; cited from earlier work

In the case of dihydro-beta-erythroidine [DHβE], the IC50 [1] is listed as 190 nM and the IC50 [2] is listed as 370 nM.
